Data set [1] deals with T1, aggregated 4R-tau in PSP tissue (Homo sapiens, UniProt P10636).
T1 construct: autopsy-confirmed postmortem AD, PSP, and CBD human brain tissues; tissue UCSF Neurodegenerative Disease Brain Bank; host or cells: post-mortem human PSP brain homogenate
Kind of data set: In vitro competition (Ki) assay, PSP brain tissue homogenate. The class given is binding.

By UniProt entry, the sequences of proteins in these tests, tags left out. Residues count along the entry.
UniProt P10636, 1-410 isoform P10636-5: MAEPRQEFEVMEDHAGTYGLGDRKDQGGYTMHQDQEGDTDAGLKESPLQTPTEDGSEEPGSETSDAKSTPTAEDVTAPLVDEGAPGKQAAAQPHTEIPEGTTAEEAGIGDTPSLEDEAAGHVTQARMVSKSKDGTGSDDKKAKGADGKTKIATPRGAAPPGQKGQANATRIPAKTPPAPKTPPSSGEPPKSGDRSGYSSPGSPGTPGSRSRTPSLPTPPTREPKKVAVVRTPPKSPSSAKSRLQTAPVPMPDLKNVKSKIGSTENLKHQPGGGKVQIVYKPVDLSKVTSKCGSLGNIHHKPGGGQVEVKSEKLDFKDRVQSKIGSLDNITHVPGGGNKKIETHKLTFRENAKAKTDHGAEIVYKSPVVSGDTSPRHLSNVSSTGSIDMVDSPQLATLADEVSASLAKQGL
UniProt P10636, 1-441 isoform P10636-8 P301L: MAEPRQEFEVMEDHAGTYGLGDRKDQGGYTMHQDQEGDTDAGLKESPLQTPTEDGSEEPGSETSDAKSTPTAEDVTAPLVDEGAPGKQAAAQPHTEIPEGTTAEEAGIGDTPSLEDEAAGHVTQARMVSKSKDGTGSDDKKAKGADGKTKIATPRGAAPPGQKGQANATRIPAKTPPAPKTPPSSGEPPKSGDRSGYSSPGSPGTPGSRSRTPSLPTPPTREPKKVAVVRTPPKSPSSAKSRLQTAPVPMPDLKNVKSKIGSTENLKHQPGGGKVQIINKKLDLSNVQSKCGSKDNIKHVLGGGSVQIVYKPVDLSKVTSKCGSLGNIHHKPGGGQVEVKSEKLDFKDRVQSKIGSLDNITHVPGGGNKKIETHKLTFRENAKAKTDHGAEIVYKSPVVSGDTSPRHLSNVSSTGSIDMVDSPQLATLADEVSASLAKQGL
UniProt P05067, 672-713 limits assumed: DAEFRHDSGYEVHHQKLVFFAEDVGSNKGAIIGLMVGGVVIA

Data set [2] addresses T2, aggregated 4R-tau in AD tissue (Homo sapiens, UniProt P10636).
T2 construct: autopsy-confirmed postmortem AD, PSP, and CBD human brain tissues; tissue UCSF Neurodegenerative Disease Brain Bank; host or cells: post-mortem human AD brain homogenate
Kind of data set: In vitro competition (Ki) assay, AD brain tissue homogenate. The class given is binding.

Data set [3] addresses T3, aggregated 4R-tau in CBD tissue (Homo sapiens, UniProt P10636).
T3 construct: autopsy-confirmed postmortem AD, PSP, and CBD human brain tissues; tissue UCSF Neurodegenerative Disease Brain Bank; host or cells: post-mortem human CBD brain homogenate
Kind of data set: In vitro competition (Ki) assay, CBD brain tissue homogenate. It is filed as binding.

In data set [4] the target is T4, aggregated 4R-tau in PSP brain (Homo sapiens, UniProt P10636).
T4 construct: aggregated 4R-tau in human brain tissue samples from AD, PSP, and CBD patients; from tissue; host or cells: homogenized cortex of human PSP brain
Kind of data set: Binding affinity (Kd) assay, PSP brain homogenate. To be noted: PSP tissue; Table 7 (n = 4); read-out: KD (homologous binding assay).

Data set [5] concerns the target T5, aggregated 4R-tau in CBD brain (Homo sapiens, UniProt P10636).
T5 construct: aggregated 4R-tau in human brain tissue samples from AD, PSP, and CBD patients; from tissue; host or cells: homogenized cortex of human CBD brain
Kind of data set: Binding affinity (Kd) assay, CBD brain homogenate. Particulars: CBD tissue; Table 7 (n = 4); read-out: KD (homologous binding assay).

Data set [6] deals with T6, P301L mouse brain tissue (Homo sapiens, UniProt P10636, P618L).
T6 construct: from tissue; host or cells: brain tissue of P301L mouse
Kind of data set: Homologous binding assay, P301L mouse brain tissue. To be noted: Table 7 (n = 4).

Data set [7] addresses T7, Pick's Disease brain tissue (Homo sapiens, UniProt P10636).
T7 construct: post-mortem human AD, PSP, CBD, and Pick's Disease brain tissue; from tissue; host or cells: post-mortem human Pick's Disease brain
Kind of data set: Homologous binding assay, Pick's Disease brain tissue. Particulars: Table 7 (n = 4).

For data set [8], the target named is T8, aggregated 4R-tau in AD brain (Homo sapiens, UniProt P10636).
T8 construct: aggregated 4R-tau in human brain tissue samples from AD, PSP, and CBD patients; from tissue; host or cells: homogenized cortex of human AD brain
Kind of data set: Binding affinity (Kd) assay, AD brain homogenate. To be noted: AD tissue; Table 7 (n = 4); read-out: KD (homologous binding assay).

In data set [9] the target is T9, PiB binding site on amyloid-beta (Homo sapiens, UniProt P05067).
T9 construct: from tissue; host or cells: post-mortem human AD brain
Kind of data set: Competition against [^3H]PiB in post-mortem human AD brain tissue. Particulars: vs. [^3H]PiB, Table 7 (n = 4).

Data set [10] can be described thus: Brain PET imaging studies in rhesus macaques (brain uptake and washout). It is filed as in vivo. Particulars: rhesus macaque PET. The method, then:
Brain uptake and washout of [^8F]68 (FIG. 5) and [^8F]69 (FIG. 6) was evaluated by brain PET imaging studies in rhesus macaques. The 2-minute to 60-minute ratios of [^18F]68 were 1.2 (whole brain), 1.3 (cortex), and 2.0 (cerebellum). The 2-minute to 60-minute ratios of [^18F]69 were 3.0 (whole brain), 3.7 (cortex), and 3.8 (cerebellum).

[11] abbreviates: vs [^3H]1, n = 1, Ki=IC50/2, read-out: Inhibition Constant (Ki) versus [^3H]1.
Setting [12] is: vs [^3H]2, n = 1, Ki=IC50/2, read-out: Inhibition Constant (Ki) versus [^3H]2.

Read-outs that look alike come from different tables or passages of the source.

`Fc1ccc2cc(-c3cnc(N4CC[C@@H](F)C4)nc3)[nH]c2c1` [(R)-Compound 37, (R)-6-Fluoro-2-(2-(3-fluoropyrrolidin-1-yl)pyrimidin-5-yl)-1H-indole]: the inhibitory constant (Ki) – broadly, the equilibrium dissociation constant of an inhibitor or competing ligand from its target – came out at 0.014 µM in data set [1] (setting [11]); 0.023 µM in data set [1] (setting [12]); 0.016 µM in [2] (setting [11]); 0.017 µM in [2] (setting [12]); 0.015 µM in data set [3] (setting [11]); 0.02 µM in data set [3] (setting [12]).
In the case of `Fc1nc(N2CCOCC2)ccc1-c1cc2ccccc2[nH]1` [[^3H]69], the Kd (commonly the equilibrium constant for the complex coming apart) in [4] came to 0.0023 ± 0.0006 µM; in data set [5], 0.0025 ± 0.0003 µM; in data set [6], 0.0028 ± 0.0007 µM; in data set [7], 0.0033 ± 0.0003 µM; in [8], 0.0015 ± 0.0004 µM.
`FCCOCCOC1CCN(c2ncc(-c3cc4ccccc4[nH]3)cn2)CC1` [Compound 102, 2-(2-(4-(2-(2-Fluoroethoxy)ethoxy)piperidin-1-yl)pyrimidin-5-yl)-1H-indole]: the Ki stood at 0.023 µM in [1] (setting [12]); 0.019 µM in data set [2] (setting [11]); 0.02 µM in [2] (setting [12]); 0.039 µM in [3] (setting [11]); 0.03 µM in data set [3] (setting [12]).
Take `Fc1ccc2cc(-c3cc(F)c(N4CCOCC4)cn3)[nH]c2c1` [Compound 100, 4-(4-Fluoro-6-(6-fluoro-1H-indol-2-yl)pyridin-3-yl)morpholine]: the inhibition constant Ki in data set [1] (setting [12]) stood at 0.065 µM; in data set [2] (setting [12]), 0.115 µM; in data set [3] (setting [12]), 0.056 µM.
As to `Fc1nc(N2CCOCC2)ccc1-c1cc2ccccc2[nH]1` [Compound 69, 4-(6-Fluoro-5-(1H-indol-2-yl)pyridin-2-yl)morpholine], the Ki in data set [1] (setting [11]) was determined as 0.01 µM; in data set [2] (setting [11]), 0.0092 µM; in [2] (setting [12]) it was 0.0065 µM; in data set [9], 0.061 ± 0.003 µM; in data set [3] (setting [11]) it was 0.013 µM; in data set [3] (setting [12]), 0.011 µM.
For `Fc1ccc2cc(-c3ccc(N4CCOCC4)nc3)[nH]c2c1` [Compound 40, 4-(5-(6-Fluoro-1H-indol-2-yl)pyridin-2-yl)morpholine], the Ki in [1] (setting [11]) was determined as 0.0079 µM; in data set [2] (setting [11]), 0.0095 µM; in [2] (setting [12]), 0.013 µM; in data set [3] (setting [11]), 0.011 µM; in [3] (setting [12]) it was 0.012 µM.
As to `O=C1CCN(c2ncc(-c3cc4ccc(F)cc4[nH]3)cn2)CC1` [Compound 38, 1-(5-(6-Fluoro-1H-indol-2-yl)pyrimidin-2-yl)piperidin-4-one], the Ki in [1] (setting [11]) was determined as 0.013 µM; in data set [1] (setting [12]) it was 0.014 µM; in data set [2] (setting [11]), 0.012 µM; in data set [3] (setting [11]), 0.017 µM; in data set [3] (setting [12]) it was 0.015 µM.
With `COC1CCN(c2ncc(-c3cc4ccc(F)cc4[nH]3)cn2)CC1` [Compound 36, 6-Fluoro-2-(2-(4-methoxypiperidin-1-yl)pyrimidin-5-yl)-1H-indole], the Ki stood at 0.01 µM in data set [1] (setting [12]); 0.005 µM in data set [2] (setting [11]); 0.0095 µM in data set [2] (setting [12]); 0.0082 µM in data set [3] (setting [11]); 0.014 µM in data set [3] (setting [12]).
As for `Fc1cc(N2CCOCC2)ncc1-c1cc2ccccc2[nH]1` [Compound 88, 4-(4-Fluoro-5-(1H-indol-2-yl)pyridin-2-yl)morpholine], the inhibition constant Ki in [1] (setting [12]) was 0.015 µM; in data set [2] (setting [12]), 0.013 µM; in [3] (setting [12]), 0.012 µM.
For `Fc1ccc2cc(-c3cnc(N4CCOCC4)cn3)[nH]c2c1` [Compound 81, 4-(5-(6-Fluoro-1H-indol-2-yl)pyrazin-2-yl)morpholine], in that order: 0.0073 µM, 0.008 µM and 0.0082 µM.
Turning to `Fc1ccc2[nH]c(-c3ccc(N4CCOCC4)nc3)cc2c1` [Compound 73, 4-(5-(5-fluoro-1H-indol-2-yl)pyridin-2-yl)morpholine], the Ki in [1] (setting [12]) is 0.0063 µM; in data set [2] (setting [12]), 0.005 µM; in [3] (setting [12]), 0.0077 µM.
For `Fc1ccc2[nH]c(-c3cnc(N4CCOCC4)nc3)cc2c1` [Compound 72, 4-(5-(5-Fluoro-1H-indol-2-yl)pyrimidin-2-yl)morpholine], in that order: 0.0095 µM, 0.0092 µM and 0.01 µM.
On the same counts, the results for `Fc1ccc2cc(-c3cnc(N4CCOCC4)c(F)c3)[nH]c2c1` [Compound 84, 4-(3-Fluoro-5-(6-fluoro-1H-indol-2-yl)pyridin-2-yl)morpholine] are 0.02 µM, 0.024 µM and 0.018 µM.
For `Fc1ccc2cc(-c3ccc(N4CCCCC4)nc3F)[nH]c2c1` [Compound 75, 6-Fluoro-2-(2-fluoro-6-(piperidin-1-yl)pyridin-3-yl)-1H-indole], in that order: 0.034 µM, 0.029 µM and 0.026 µM.
For `Fc1ccc2cc(-c3ccc(N4CCCCC4)nc3)[nH]c2c1` [Compound 39, 6-fluoro-2-(6-(piperidin-1-yl)pyridin-3-yl)-1H-indole], the inhibitory constant (Ki) in data set [1] (setting [11]) worked out at 0.0046 µM; in data set [1] (setting [12]), 0.0052 µM; in [2] (setting [12]), 0.0049 µM; in [3] (setting [11]), 0.0062 µM; in data set [3] (setting [12]) it was 0.0059 µM.
Take `[18F]c1nc(N2CCOCC2)ccc1-c1cc2ccccc2[nH]1` [[^18F]69, 4-(6-[^18F]Fluoro-5-(1H-indol-2-yl)pyridin-2-yl)morpholine]: the “2-minute to 60-minute ratio, cerebellum” value in data set [10] (cerebellum) was 3.8. Further, the “2-minute to 60-minute ratio, cortex” value in data set [10] (cortex) came to 3.7. The “2-minute to 60-minute ratio, whole brain” value in data set [10] (whole brain) is on record as 3.0.
Consider `Fc1cc(-c2cc3ccccc3[nH]2)cnc1N1CCCCC1` [Compound 89, 2-(5-Fluoro-6-(piperidin-1-yl)pyridin-3-yl)-1H-indole], for which the Ki in data set [1] (setting [12]) came to 0.017 µM; in [2] (setting [12]), 0.016 µM; in [3] (setting [12]), 0.014 µM.
For `Fc1cc(N2CCCCC2)cnc1-c1cc2ccccc2[nH]1` [Compound 92, 2-(3-Fluoro-5-(piperidin-1-yl)pyridin-2-yl)-1H-indole], the inhibition constant Ki in data set [1] (setting [12]) was determined as 0.02 µM; in data set [2] (setting [12]), 0.015 µM; in data set [3] (setting [12]), 0.016 µM.
For `Fc1cc(-c2cc3ccccc3[nH]2)cnc1N1CCOCC1` [Compound 90, 4-(3-Fluoro-5-(1H-indol-2-yl)pyridin-2-yl)morpholine], in that order: 0.0086 µM, 0.0079 µM and 0.0095 µM.
Take `Fc1ccc2cc(-c3cnc(N4CCCCC4)nc3)[nH]c2c1` [Compound 15, 6-Fluoro-2-(2-(piperidin-1-yl)pyrimidin-5-yl)-1H-indole]: the Ki in data set [1] (setting [11]) amounted to 0.0062 µM; in data set [1] (setting [12]), 0.0092 µM; in data set [2] (setting [11]) it was 0.0035 µM; in [2] (setting [12]), 0.0077 µM; in [3] (setting [11]), 0.0063 µM; in data set [3] (setting [12]), 0.012 µM.
With `Fc1cc(N2CCOCC2)cnc1-c1cc2ccccc2[nH]1` [Compound 97, 4-(5-Fluoro-6-(1H-indol-2-yl)pyridin-3-yl)morpholine], the inhibitory constant (Ki) turned out to be 0.025 µM in data set [1] (setting [12]), 0.021 µM in data set [2] (setting [12]) and 0.022 µM in data set [3] (setting [12]).
For the compound `Fc1cc(-c2cc3ccccc3[nH]2)ncc1N1CCOCC1` [Compound 99, 4-(4-Fluoro-6-(1H-indol-2-yl)pyridin-3-yl)morpholine], the Ki was determined as 0.044 µM in data set [1] (setting [12]), 0.05 µM in data set [2] (setting [12]) and 0.049 µM in [3] (setting [12]).
In the case of `Fc1ccc2cc(-c3cnc(N4CCCCC4)c(F)c3)[nH]c2c1` [Compound 83, 6-Fluoro-2-(5-fluoro-6-(piperidin-1-yl)pyridin-3-yl)-1H-indole], the inhibition constant (Ki) is 0.0078 µM in [1] (setting [12]), 0.0075 µM in data set [2] (setting [12]) and 0.0087 µM in data set [3] (setting [12]).

The record behind these values is US20260317296A1, “HETEROCYCLIC COMPOUNDS FOR IMAGING AGGREGATED TAU IN TAUOPATHIES” (University of Pittsburgh - Of the Commonwealth System of …, priority 2023, published 2026).
